The chains behind the UniProt entries cited, without tags or fusion partners. Residues count along the entry.
UniProt Q8CA95, 446-763 limits assumed: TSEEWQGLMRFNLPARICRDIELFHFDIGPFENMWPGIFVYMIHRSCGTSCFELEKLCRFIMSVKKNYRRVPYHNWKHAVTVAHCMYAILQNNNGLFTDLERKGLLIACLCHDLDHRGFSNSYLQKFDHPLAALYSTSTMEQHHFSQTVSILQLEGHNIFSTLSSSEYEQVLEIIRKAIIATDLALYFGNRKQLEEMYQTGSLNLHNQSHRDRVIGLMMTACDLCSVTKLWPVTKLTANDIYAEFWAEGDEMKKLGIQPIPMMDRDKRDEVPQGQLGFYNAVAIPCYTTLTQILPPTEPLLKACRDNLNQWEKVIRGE

In patent US20090062277A1, “PHOSPHODIESTERASE 10 INHIBITORS” (priority 2007, published 2009):

Target: mPDE10A7 (Mus musculus, UniProt Q8CA95)
Test: mPDE10A7 enzyme inhibition (IMAP fluorescence polarization)
Settings: fluorescein labeled cAMP or cGMP substrate, 30 min at room temperature

Row | IC50 | Compound
1 | 140 nM | COc1cc2nncc(-c3ccc(N4CCC(NC(=O)C(C)(C)C)CC4)nc3)c2cc1OC
2 | 60.6 nM | CCOc1cc2c(-c3cnc(N4CCC(C(C)(C)O)CC4)c(C)c3)cnnc2cc1C
